The text below walks through data of US10251892B2, “Bicyclic heterocycles as FGFR4 inhibitors” (Incyte Corporation, priority 2015, dated 2019).

Chains of the proteins cited; added tags and fusions are not shown. Residues count along the entry.
UniProt P22607, 23-806 limits assumed: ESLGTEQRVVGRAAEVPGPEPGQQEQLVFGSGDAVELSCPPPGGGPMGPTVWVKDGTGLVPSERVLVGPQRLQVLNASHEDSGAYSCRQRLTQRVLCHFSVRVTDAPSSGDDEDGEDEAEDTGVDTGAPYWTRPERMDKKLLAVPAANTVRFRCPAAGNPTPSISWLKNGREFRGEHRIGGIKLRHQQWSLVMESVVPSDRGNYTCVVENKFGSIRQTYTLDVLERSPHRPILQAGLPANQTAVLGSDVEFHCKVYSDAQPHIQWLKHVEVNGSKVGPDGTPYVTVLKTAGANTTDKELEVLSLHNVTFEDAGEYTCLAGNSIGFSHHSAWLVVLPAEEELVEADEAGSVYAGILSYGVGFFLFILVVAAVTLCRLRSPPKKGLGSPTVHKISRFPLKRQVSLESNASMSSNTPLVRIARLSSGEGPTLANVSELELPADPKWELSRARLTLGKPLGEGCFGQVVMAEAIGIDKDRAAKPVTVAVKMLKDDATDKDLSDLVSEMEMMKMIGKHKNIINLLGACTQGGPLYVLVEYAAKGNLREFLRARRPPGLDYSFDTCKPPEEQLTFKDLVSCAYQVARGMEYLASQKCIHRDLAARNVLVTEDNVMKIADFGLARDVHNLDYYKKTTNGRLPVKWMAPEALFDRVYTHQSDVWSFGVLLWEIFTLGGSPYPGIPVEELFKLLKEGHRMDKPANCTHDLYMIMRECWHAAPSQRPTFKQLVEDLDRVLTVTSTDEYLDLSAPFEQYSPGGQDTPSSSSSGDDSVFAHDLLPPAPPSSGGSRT

This assay deals with FGFR3 enzyme (Homo sapiens (Human), UniProt P22607). The assay can be described thus: FGFR Enzymatic Assay (peptide phosphorylation, FRET), FGFR3. The format is biochemical. Particulars: IC50 ratio showing FGFR3 selectivity; pre-incubated for 4 hours.

Turning to `COc1cc(OC)c(F)c(N2Cc3cnc(-c4cn(C)nc4C)cc3N(c3cnn(C)c3)C2=O)c1F`, the FGFR1/FGFR3 is over 10 and the FGFR4/FGFR3 is over 10.
